These results are taken from PubChem BioAssay AID637 (SRMLSC, 2007).

The entries are a selection whose mix differs from that of the whole data set. The source made the active and inactive calls. No stated cut-off is given here; in the data, active means inhibition above about 30%; inactive means the rest.

One may read the inhibition as the relative decrease from the control value, in per cent.

This assay is described as follows: growth suppression of yeast trafficking mutant, preliminary HTS, modulators of trafficking downstream of Golgi apparatus project, 1536-format plate, OD 615 nm (AID 637). Particulars: yeast transport mutant growth, absorbance 615 nm, 18 h; active compounds read high.
Turning to `O=P(Nc1nccs1)(c1ccccc1)c1ccccc1`, the inhibition was inactive: 3.65%. With `CCOP1(=S)c2c(C)nn(CCC#N)c2N=C(c2ccccc2F)N1C` (stereo not given) the figure was inactive: -10.7%; with `Cc1nn(-c2ccccc2)c2c1P(=O)(N1CCOCC1)N(C)C(c1ccccc1)=N2` (stereo not given), inactive: 17.6%; with `COP1(=S)c2c(C)nn(CCC#N)c2N=C(c2ccc(F)cc2)N1C` (stereo not given), inactive: 1.59%. For the molecule `O=C(COc1ccccc1)OC1CN2CCC1CC2` (stereo not given), the inhibition was inactive: 2.73%.
